The structures appear in SMILES notation. This is a selection; strong and weak results do not stand in their true shares. The source made the active and inactive calls. Rule as the data show it: active = binding response below about 16% or above about 210%; inactive = in between.

The target in this experiment is Mitogen-activated protein kinase kinase kinase 2 (Homo sapiens) (UniProt Q9Y2U5). As to the kind of experiment: modulators of MEK5 binding to wildtype MEKK2, confirmation, biochemical, single concentration, multiplex bead flow cytometry (AID 1892). The following applies: Alexa488-MEK5 binding to MEKK2 WT, at 10 µM, actives lie on both sides.
In the case of `CCC1=CC2Cc3nc4ccc(Cl)cc4c(N)c3C(C1)C2` (configuration not stated), the binding response (% of control) is inactive: 140%. `CN(CCCl)Cc1cc(Cl)c(NC2=NCCN2)c(Cl)c1`: the binding response (% of control) was inactive: 122%.
